This passage reports Kd results from paper PMC3045272 (Acta Crystallographica Section D: Biological Crystallography, 2011).

Amino acid sequences for entries named in this document (tags omitted).
UniProt P62937, whole entry: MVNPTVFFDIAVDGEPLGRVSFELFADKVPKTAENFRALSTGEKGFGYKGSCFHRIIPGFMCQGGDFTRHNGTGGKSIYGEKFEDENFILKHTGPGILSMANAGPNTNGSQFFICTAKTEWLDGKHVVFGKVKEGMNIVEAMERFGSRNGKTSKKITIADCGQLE

Each structure is given as a SMILES string.

This experiment concerns the target CypA (cyclophilin A) (Homo sapiens, UniProt P62937). The experiment can be described thus: biochemical.

As usually defined, the Kd is the equilibrium constant for the complex coming apart. Take `C=C/C=C\C[C@@H](C)[C@@H](O)[C@H]1C(=O)N[C@@H](CC)C(=O)N(C)CC(=O)N(C)[C@@H](CC(C)C)C(=O)N[C@@H](C(C)C)C(=O)N(C)[C@@H](CC(C)C)C(=O)N[C@@H](C)C(=O)N[C@H](C)C(=O)N(C)[C@@H](CC(C)C)C(=O)N(C)[C@@H](CC(C)C)C(=O)N(C)[C@@H](C(C)C)C(=O)N1C` [Z-ISA247]: binding was characterised by a dissociation constant (Kd) of 61 nM.
